Values quoted from earlier work as cited in PMC5249262.

Target: laminin-1 (Mus musculus) (UniProt P19137)

67-kDa laminin receptor (from UniProt P14206)
Kd: 2 nM
